Assay results taken from patent US12115147B2, “Formulations and methods related to eye irritation” (Lebrun Labs LLC, priority 2020, dated 2024).

Assays:
[1] = Table 7A; consensus of past transferability study, no antioxidants; predicted GHS class; cited from earlier work
rabbit eye = settings: Table 7A; based on the Draize data; cited from earlier work
[2] = OS2 (OPTISAFE2), OPTISAFE formulation with antioxidants; settings: Table 7A

Ammonium nitrate
OS Cons [1]: 2 | In vivo GHS (rabbit eye): Cat 2A | OS2 Cons ([2]; majority prediction of the triplicate assays): 2 | 0S2 R1 ([2]; repeat 1, with antioxidants, predicted GHS class): 2 | OS2 R3 ([2]; repeat 3, with antioxidants, predicted GHS class): 2

Some compounds may have been tested in ways that are not shown here.
